Reference: publication PMC6006426 (2018)

Tested on: OCT2 and MATE1
Conditions: based on Cmax,u with Kp,uu incorporated; mean ± S.D. (n = 11)

COc1cc2ncnc(Nc3ccc(F)c(Cl)c3)c2cc1OCCCN1CCOCC1 [Gefitinib, gefitinib]
Prediction of SCr increase, Cmax,u · Kp,uu: 4.27 ± 1.43%
